Experimental data reported in ChEMBL document CHEMBL2346593, “Novel adamantyl cannabinoids as CB1 receptor probes” (J Med Chem, 2013).

The chains behind the UniProt entries cited, without tags or fusion partners.
UniProt P20272, whole entry: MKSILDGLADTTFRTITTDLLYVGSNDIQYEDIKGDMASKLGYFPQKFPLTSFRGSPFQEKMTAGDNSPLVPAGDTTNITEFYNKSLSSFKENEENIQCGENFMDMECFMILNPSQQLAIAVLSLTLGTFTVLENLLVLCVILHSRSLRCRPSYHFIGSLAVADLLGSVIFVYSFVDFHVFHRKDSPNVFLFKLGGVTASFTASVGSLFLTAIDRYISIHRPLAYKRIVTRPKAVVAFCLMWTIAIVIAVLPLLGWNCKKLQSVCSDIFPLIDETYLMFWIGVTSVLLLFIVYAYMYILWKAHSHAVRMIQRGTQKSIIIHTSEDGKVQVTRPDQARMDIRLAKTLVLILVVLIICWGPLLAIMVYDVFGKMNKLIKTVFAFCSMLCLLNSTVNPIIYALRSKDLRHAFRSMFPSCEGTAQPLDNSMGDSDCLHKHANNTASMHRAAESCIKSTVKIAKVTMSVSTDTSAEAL

Legend:
[1] = Selectivity ratio of Ki for mouse CB2 receptor to Ki for rat CB1 receptor
[2] = Selectivity ratio of Ki for human CB2 receptor to Ki for rat CB1 receptor
Cannabinoid receptor 1 = Cannabinoid receptor 1 (Rattus norvegicus, UniProt P20272); experiment: Displacement of [3H]CP-55940 from rat CB1 receptor expressed in rat brain membrane by competitive binding assay; type: cell membranes
Outline: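 Competition-equilibrium binding against [3H]CP-55,940 in rat brain membranes (CB1), mouse spleen membranes (mCB2), or membranes of HEK293 cells expressing hCB2. IC50 was obtained by nonlinear regression and converted to Ki. Ki is the mean of three independent experiments, each run in duplicate.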

CC1(C)Oc2cc(C34CC5CC(CC(C5)C3)C4)cc(O)c2[C@@H]2C[C@@H](O)CC[C@H]21
Ratio Ki [1]: 1.7 | Ratio Ki [2]: 4.6

CC1(C)Oc2cc(C34CC5CC(CC(C5)C3)C4)cc(O)c2[C@@H]2CC(=O)CC[C@H]21
Ki (Cannabinoid receptor 1): 0.176 µM | Ratio Ki [1]: 1.4 | Ratio Ki [2]: 1.9

CC1=CC[C@@H]2[C@@H](C1)c1c(O)cc(C34CC5CC(CC(C5)C3)C4)cc1OC2(C)C
Ratio Ki [1]: 7.6

CC1(C)Oc2cc(C34CC5CC(CC(C5)C3)C4)cc(O)c2[C@@H]2C[C@H](O)CC[C@H]21
Ratio Ki [1]: 1.6 | Ratio Ki [2]: 1.7
